pEC50: −log10 of the molar value. Counter-ions that a name gives are not always drawn.

This assay relates to MM1S. The experiment in a line: Anticancer activity: Alamar Blue assay, MM1S. Type of assay: cell-based. Conditions: Homo sapiens, MM1.S, read-out: MM1S EC50. Background: The colour change of resazurin is a common sign of viable cells or microbes.
Usually pEC50 stands for the negative decadic logarithm of the EC50, by convention in mol/L. `Nc1ccccc1NC(=O)c1ccc(CCCN2CC(CNC3CC3c3ccc(F)cc3)C2)cc1` (stereo not drawn) [Example 126, N-(2-aminophenyl)-4-(3-(3-(((2-(4-fluorophenyl)cyclopropyl)amino)methyl)azetidin-1-yl)propyl)benzamide TFA Salt]: the pEC50 is 7.92.
Take `Nc1ccccc1NC(=O)/C=C/c1ccc(CNC2CC2c2ccc(F)cc2)cc1` (stereo not drawn) [Example 120]: the pEC50 is 6.44.
With `O=C(/C=C/c1ccc(CNC2CC2c2ccc(F)cc2)cc1)NO` (stereo not drawn) [Example 2, (E)-3-(4-{[2-(4-Fluoro-phenyl)-cyclopropylamino]-methyl}-phenyl)-N-hydroxy-acrylamide TFA Salt] the figure was 7.64.

For the origin of these results see patent publication US11352322B2, “Cyclopropyl-amide compounds as dual LSD1/HDAC inhibitors” (Jubilant Epicore LLC, priority 2016, dated 2022).
